Yeast mating assay B: variants of the scFv Ab-14

The target is the same throughout: PDVDLGDISGINAS, from the HR2 region of SARS-CoV-2 spike.

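Phage display of a naive human antibody library on the peptide gave the parent. This is the validation round: designs drawn from the data on random variants, tested in the same kind of assay. Group labels follow the data file (Ctrl: baseline library sampled from a position-specific scoring matrix, with some repeated check sequences; Rand: our label for a block that the file lists under HC and that is probably the random mutants of the ten best first-round binders; GP: Gaussian process model; GPLM: also part of the Gaussian process libraries; HC: hill climbing; Gen: genetic algorithm; Gibbs: Gibbs sampling; a sequence that several methods proposed may carry one label only). The scFvs were displayed on barcoded MATa yeast, the peptide on MATalpha yeast. Pairs that bind mate more often; barcode pairs of the diploids are counted by sequencing. Each replicate has its own calibration line, from reference interactions of the BCL2 family. Each pool was mated in six replicate cultures.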

Ab-14 is the parent antibody, in scFv form: VH, then a 15-residue (Gly4Ser)3 linker, then VL. The light chain is unchanged in all variants.
VH: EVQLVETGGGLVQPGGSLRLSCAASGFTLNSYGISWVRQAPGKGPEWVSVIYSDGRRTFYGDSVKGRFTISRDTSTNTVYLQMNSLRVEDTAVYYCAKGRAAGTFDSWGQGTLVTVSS
VL: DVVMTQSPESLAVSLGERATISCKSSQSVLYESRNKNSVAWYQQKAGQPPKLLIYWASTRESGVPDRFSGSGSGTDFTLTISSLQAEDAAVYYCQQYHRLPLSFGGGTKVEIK

Each variant is given by its three heavy chain CDRs, as the data file delimits them; those of the parent are GFTLNSYGIS, VIYSDGRRTFYGDSVK, GRAAGTFDS.
Variants here have at most six changes.
Scale: log10 of Kd in nM, estimated from mating counts; low values are strong binders.
"ND" means that the variant was in the library but no mating with the target was seen in that replicate; the authors take this as a sign of poor binding, and no number exists.
The authors' rule: three or more of the six replicates give a measured affinity, fewer mean a poor binder.
As a blank, each scFv also met three strains without target: over all heavy chain designs, 1% of these pairings were detected, typically at 2.08 and seldom below 0.84.
Values of this round are not directly comparable with the first-round values of the same sequences.
Of ten entries with the parent sequence, four were seen in most replicates (averages 0.34 to 2.37), three in one and three in none, so single entries are noisy.

CDR-H1,CDR-H2,CDR-H3,group,log10 Kd (nM) by replicate
GFTLESYGIS,VIYSDGRRTFYADSVK,GRTAGTFDS,GPLM_Gen,0.42 / 0.01 / 0.07 / 0.38 / 0.16 / 0.29
GFTLNEYGIS,VIYSDGRRTFYGDSVK,GMAAGTFDS,Ctrl,0.70 / 0.59 / -0.09 / 0.12 / 1.00 / 0.54
GFELNSYGIS,VIYSDGRRTFYADTVK,GRTAGTFDS,GP_Gen,0.01 / 0.66 / 0.08 / 0.24 / -0.11 / -0.15
GFDLNEYGIS,VIYSDGRRTFYTDSVK,GREAGTFDS,GP_HC,-0.25 / -0.48 / -0.34 / -0.69 / -0.59 / -0.17
GFELNDYGIS,VIYSDGRRTFYGDSVK,GRTAGTFDK,GP_Gen,0.18 / 0.44 / 0.31 / 0.31 / 0.21 / 0.33
GFTLNSYGIS,VIYSDGRRCFYSDSVK,GRAAGTFIC,Ctrl,ND / ND / 1.48 / ND / 2.04 / 1.69
GFDLNSYGIS,VIYSDGRRTFYGDSVK,GQAAGTFDI,GP_Gibbs,1.27 / 0.54 / 0.83 / 0.47 / 0.59 / 0.60
GFTLNSYGIS,VIYSDGRRTFYSDSVK,GRAGGKFDS,GPLM_HC,ND / ND / ND / ND / ND / ND
GENLNSYGIS,VIYSDGRRTFYGDSVK,GRVAGTKDS,Ctrl,ND / ND / ND / ND / ND / ND
GESLNSYGIS,VIYSDGRRTFYADSVK,GRTAGTFDS,GPLM_Gen,ND / 2.30 / 0.97 / 1.35 / 0.76 / 1.10
GFTLRSYGIS,VIYSDGKRTFYGDSVK,GRAAGTFDS,Ctrl,ND / ND / ND / ND / 1.46 / ND
GFQLNDYGIS,VIYSDGRRTFYADSVK,GRAAGTFDS,GPLM_Gen,0.13 / 0.59 / -0.12 / 0.09 / 0.98 / 0.60
GFELNSYGIS,VIYSDGRRTFYADSVK,GRNAGTFDS,GPLM_Gen,1.10 / 0.67 / 0.61 / 0.36 / 0.90 / 0.50
GFWLNDYGIS,VIYSDGRRTFYIDSVK,GNAAGTFDS,GPLM_Gen,1.82 / 0.81 / 1.08 / 1.22 / 1.12 / 1.63
GFELNEYGIS,VIYSDGRRTFYGDSVK,GKAAGTFDL,GP_Gen,0.28 / 0.33 / 0.26 / 0.16 / 0.25 / 0.38
GFNLNSYGIS,VIYSDGRRTFYGDSVK,GRAAGTGDS,Ctrl,ND / ND / ND / ND / ND / ND
GFSLNSYGIS,VIYSDGRRTFYGDSVK,GLTAGTFDS,GPLM_Gen,-0.06 / 0.39 / 0.03 / 0.14 / 0.14 / 0.19
GFPLNSYGIS,VIYSDGRRTFYADSVK,GMLAGTFDS,GP_HC,ND / ND / ND / ND / ND / ND
GNTLNSYGIS,VIYSDGRRQFYGDSVK,GRAAGTFDS,Ctrl,ND / ND / ND / ND / ND / ND
GFCLNSYGIS,VIYSDGRRTFYIDSVK,GEAAGTFDK,GP_Gibbs,ND / ND / ND / ND / ND / ND
GFELNDYGIS,VIYSDGRRTFYIDSVK,GKAAGTFDS,GPLM_Gibbs,1.19 / ND / 0.62 / 0.24 / ND / 1.14
GFELNSYGIS,VIYSDGRRTFYVDSVK,GSTAGTFDT,GPLM_Gibbs,0.62 / 0.88 / -0.85 / -0.38 / 0.64 / 0.00
GFYLNEYGIS,VIYSDGRRTFYGDSVK,GKTAGTFDS,GP_Gen,ND / ND / ND / 0.22 / 0.58 / 1.28
GFTLNSYGIS,VIYSDGRRTFYADSVK,GYAAWTFDS,Ctrl,ND / ND / ND / ND / ND / ND
GFTLESYGIS,VIYSDGRRTFYIDSVK,RRAAGTFRS,Ctrl,ND / ND / ND / ND / ND / ND
HFTLNSYGIS,VIYSDGRRTFYGDSVK,GRAAATFDS,Ctrl,1.76 / ND / ND / ND / 1.17 / ND
GFSLNSYGIS,VIYSDGRRTFYGDSVK,GKVAGTFDQ,GP_Gibbs,-0.65 / -0.22 / -1.10 / -0.22 / 0.43 / -0.51
GETLNKYGIS,VIYSDGRRTFYGDSVK,GSAAGTFDQ,Ctrl,ND / ND / ND / ND / ND / ND
GFTLQSYGIS,VIYSDGRRTFYGDSVE,GRAQGTFDC,Ctrl,ND / ND / ND / ND / ND / ND
GFSLNEYGIS,VIYADGRRTFYGDSVK,GRAAGTFDS,GPLM_Gen,-0.67 / -0.13 / -0.86 / -0.90 / -0.30 / -0.60
GFELNSYGIS,VIYSDGRRTFYGDNVK,GRNAGTFDS,GP_Gen,0.00 / 0.36 / 0.47 / 0.42 / 1.59 / 0.75
GFTLNGYGIS,VMYLDGRRTFYGDSFK,GTAAGTFMS,Ctrl,ND / ND / ND / ND / ND / ND
GFNLNSYGIS,VIYSDGRRTFYADAVK,GQAAGTFDS,GPLM_Gen,2.42 / 2.85 / 2.10 / 2.15 / 2.16 / 2.26
GFNLNSYGIS,VIYSDGRRTFYGDQVK,GREAGTFDS,GP_Gen,0.79 / 0.66 / 0.39 / 0.37 / 0.65 / 0.64
GFTYNTYGIS,VIYSDGRRTQYIDSVK,GRQAGTFDS,Rand,ND / ND / ND / ND / ND / ND
LFTLNSYGIS,VIYSDGRKTQYGDSVK,GHAAGIFDS,Ctrl,ND / ND / ND / ND / ND / ND
GFTLNSYGIS,VIYSDGRRTFYIDQVK,GRAAGTFDK,Ctrl,ND / ND / ND / ND / ND / ND
GFHLNSYGIS,VIYSDGRRTFYADSVK,GRTAGTFDT,GPLM_Gen,ND / -0.63 / 0.55 / 1.50 / -0.79 / ND
GFTLNSYGIS,VIYSDGRRTFYDDDVK,GQTAGTFDS,GP_HC,ND / ND / ND / 1.94 / 2.27 / 1.70
GFDLNTYGIS,VIYSDGRRTAYGDSVK,GRAAGTFDS,GP_Gen,-0.27 / 0.49 / -0.16 / -0.64 / -0.35 / -0.03
GFTNNSYGIS,VIYSDGRRTFYLDSVK,GRFAGTFDS,Ctrl,ND / ND / ND / ND / ND / ND

The measurements come from Li et al. 2023 (doi:10.1038/s41467-023-39022-2) through the FLAb antibody collection.